Assay results reported in patent publication US11497722B2, “Use of metformin salt in the treatment of cerebral infarction” (dated 2022).

Tested on: p-AMPK protein
Assay: Activation of p-AMPK protein (Western blot)
Settings: HEK293T, 0.5 mM and 2 mM, 6 hrs

Metformin Citrate
Activation of p-AMPK protein (expression level, Western blot): more pronounced effect on p-AMPK activation
